# B1: AKT-interacting protein (Homo sapiens), Q9H8T0 (parent)
# chain: MNPFWSMSTSSVRKRSEGEEKTLTGDVKTSPPRTAPKKQLPSIPKNALPITKPTSPAPAAQSTNGTHASYGPFYLEYSLLAEFTLVVKQKLPGVYVQPSYRSALMWFGVIFIRHGLYQDGVFKFTVYIPDNYPDGDCPRLVFDIPVFHPLVDPTSGELDVKRAFAKWRRNHNHIWQVLMYARRVFYKIDTASPLNPEAAVLYEKDIQLFKSKVVDSVKVCTARLFDQPKIEDPYAISFSPWNPSVHDEAREKMLTQKKPEEQHNKSVHVAGLSWVKPGSVQPFSKEEKTVAT
# Variants of: B1
# Conditions: with hook1_human HOOK1, Q9UJC3
row,Variant,effect of a mutation on the interaction
1,W106A;F107A,disrupting interaction strength
